Measured values as given in patent publication US8802672B2, “Pyrimidinyl-piperazines useful as D3/D2 receptor ligands” (Richter Gedeon Nyrt., priority 2007, dated 2014).

Tested on: male Wistar rats
Assay: Catalepsy test
Type: in vivo
Conditions: oral, rat, minimum effective cataleptic dose

Row | Compound | Catalepsy (MED)
1 | Cc1cc2c(s1)Nc1ccccc1N=C2N1CCN(C)CC1 [Olanzapine, reference compound] | 40 mg/kg
2 | Cc1nc2n(c(=O)c1CCN1CCC(c3noc4cc(F)ccc34)CC1)CCCC2 [Risperidone, reference compound] | 6.0 mg/kg
